From patent US20090123377A1, “Method for Testing Substances or Mixtures of Substances,Use of Said Method and Corresponding Test Kits” (BASF AKTIENGESELLSCHAFT, priority 2005, published 2009)
Some compounds may have been tested in ways that are not shown here.

System: L-FABP
Assay: Immunological determination of L-FABP by Western blotting in liver extracts of exposed rats
Conditions: rat liver extract, high dosage, 10 days, versus control after 10 days

SMILES: Cc1ccc([N+](=O)[O-])cc1[N+](=O)[O-]
- L-FABP level by Western blotting: no change in the L-FABP level
